{"sequences": {"note": "Chains of the proteins cited; added tags and fusions are not shown.", "UniProt P50750, whole entry": "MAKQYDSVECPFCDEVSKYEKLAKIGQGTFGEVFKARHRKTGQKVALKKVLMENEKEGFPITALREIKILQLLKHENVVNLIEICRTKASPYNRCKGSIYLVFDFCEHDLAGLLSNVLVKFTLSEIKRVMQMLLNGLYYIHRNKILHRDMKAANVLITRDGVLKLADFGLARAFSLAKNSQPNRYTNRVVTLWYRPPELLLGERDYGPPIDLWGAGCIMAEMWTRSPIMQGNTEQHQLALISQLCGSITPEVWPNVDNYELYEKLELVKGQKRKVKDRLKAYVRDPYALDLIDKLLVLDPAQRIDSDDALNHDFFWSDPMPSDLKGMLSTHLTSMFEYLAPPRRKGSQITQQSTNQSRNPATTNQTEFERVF"}, "source": "paper PMC6013488", "about": "“A widely-applicable high-throughput cellular thermal shift assay (CETSA) using split Nano Luciferase” (Scientific Reports, 2018)", "molecular_target": "T1, CDK9/cyclin K (Homo sapiens, UniProt P50750)", "T1 construct": "purchased Invitrogen (ThermoFisher) PV4335", "experiment": "TR-FRET Lanthascreen Eu Kinase Binding assay"}
{"smiles": "CN1CC[C@H](c2c(O)cc(O)c3c(=O)cc(-c4ccccc4Cl)oc23)[C@H](O)C1", "note": "[Flavopiridol]", "values": [{"measurement": "Curve Class", "setting": "classifies curves by quality of fit, efficacy and number of asymptotes", "value": 5}, {"measurement": "Efficacy", "setting": "difference between highest and lowest activity across concentration range, in %", "value": -38.0}, {"measurement": "Max Resp", "setting": "in %", "value": -96.7}]}
